Patent US20020132792A1, “Aryl-substituted indirubin derivatives, their production and use” (Schering AG, priority 2000, published 2002)

Key:
[1] = test system: MCF-7 cells; assay: Proliferation assay (crystal violet); details: read-out: MCF-7 IC50, MCF-7 human tumor cells, 4 days incubation
[2] = molecular target: CDK2/CycE (Homo sapiens, UniProt P24941); assay: CDK2/CycE kinase assay; assay type: biochemical; details: read-out: CDK2 IC50; recombinant CDK2/CycE-GST, histone IIIS substrate, 0.5 μm ATP, 15 minutes at 22° C.

Row | IC50 [1] [µM] | IC50 [2] [µM] | Structure (SMILES)
1 | 6 | 0.9 | O=C1Nc2ccccc2C1=C1Nc2ccccc2C1=NO
2 | > 10 | – | O=C1Nc2ccc(S(=O)(=O)O)cc2/C1=C1/Nc2ccccc2C1=O
3 | 1 | 3 | Cc1ccc2c(c1)/C(=C1/Nc3ccccc3C1=O)C(=O)N2
